pEC50, pIC50: −log10 of the molar value.
Test system: Huh7 cells that stably maintain a subgenomic HCV replicon (S22.3 cell-line)
Assay: Cell based HCV RNA replication assay (S22.3 replicon cells, real-time RT-PCR)
Conditions: Hepatitis C virus, Huh-7, 72 h
Source text: Preparation of Test Compound
Application of Test Compound to Cells
Extraction of Total Cellular RNA
Quantification of Total Cellular RNA

**Q.** How did the pEC50 turn out when COC(=O)c1ccc2c(C3CCCCC3)c(-c3ccoc3)n(CC(=O)O)c2c1 [compound 114] was run?
**A.** < 6.00

Biological target: hepatitis C virus RNA dependant polymerase (NS5B) (Hepatitis C virus genotype 1b, UniProt P26663)
Assay: biochemical
Conditions: not given

**Q.** How did the pIC50 turn out when Cn1c(-c2ccccc2)c(C2CCCCC2)c2ccc(C(=O)O)cc21 [compound 101] was run?
**A.** < 6.00

**Q.** With O=C(O)c1ccc2c(C3CCCCC3)c(-c3ccoc3)[nH]c2c1 [compound 102] as the compound, how does the pIC50 read?
**A.** < 6.00

**Q.** With O=C(O)c1ccc2c(C3CCCCC3)c(-c3ccsc3)[nH]c2c1 [compound 104] as the compound, how does the pIC50 read?
**A.** < 6.00

**Q.** O=C(O)c1ccc2c(C3CCCCC3)c(Br)[nH]c2c1 [compound 105] was tested. Which pIC50 did it give?
**A.** < 6.00

**Q.** With Cn1c(-c2ccccn2)c(C2CCCCC2)c2ccc(C(=O)O)cc21 [compound 106] as the compound, how does the pIC50 read?
**A.** 6.00 to 6.30

**Q.** How did the pIC50 turn out when Cn1c(-c2ccoc2)c(C2CCCCC2)c2ccc(C(=O)O)cc21 [compound 107] was run?
**A.** 6.00 to 6.30

**Q.** With Cc1ccc(-c2c(C3CCCCC3)c3ccc(C(=O)O)cc3n2C)nc1 [compound 108] as the compound, how does the pIC50 read?
**A.** 6.00 to 6.30

**Q.** With Cn1c(-c2cnccn2)c(C2CCCCC2)c2ccc(C(=O)O)cc21 [compound 109] as the compound, how does the pIC50 read?
**A.** > 6.30

**Q.** With O=C(O)c1ccc2c(C3CCCC3)c(-c3ccoc3)[nH]c2c1 [compound 110] as the compound, how does the pIC50 read?
**A.** > 6.30

**Q.** How did the pIC50 turn out when Cn1c(-c2ccoc2)c(C2CCCC2)c2ccc(C(=O)O)cc21 [compound 111] was run?
**A.** > 6.30

**Q.** With Cn1c(-c2cccc(N)n2)c(C2CCCCC2)c2ccc(C(=O)O)cc21 [compound 112] as the compound, how does the pIC50 read?
**A.** > 6.30

**Q.** Cn1c(-c2cccc(N)n2)c(C2CCCC2)c2ccc(C(=O)O)cc21 [compound 113] was tested. Which pIC50 did it give?
**A.** > 6.30

**Q.** How did the pIC50 turn out when COC(=O)c1ccc2c(C3CCCCC3)c(-c3ccoc3)n(CC(=O)O)c2c1 [compound 114] was run?
**A.** < 6.00

**Q.** Cn1c(-c2ccccn2)c(C2CCCC2)c2ccc(C(=O)O)cc21 [compound 115] was tested. Which pIC50 did it give?
**A.** 6.00 to 6.30

**Q.** With O=C(O)Cn1c(-c2ccoc2)c(C2CCCCC2)c2ccc(C(=O)O)cc21 [compound 116] as the compound, how does the pIC50 read?
**A.** > 6.30

**Q.** Cn1c(-c2cscn2)c(C2CCCC2)c2ccc(C(=O)O)cc21 [compound 117] was tested. Which pIC50 did it give?
**A.** > 6.30

**Q.** How did the pIC50 turn out when CC(=O)Nc1nc(-c2c(C3CCCC3)c3ccc(C(=O)O)cc3n2C)cs1 [compound 118] was run?
**A.** > 6.30

**Q.** CNc1nc(-c2c(C3CCCC3)c3ccc(C(=O)O)cc3n2C)cs1 [compound 119] was tested. Which pIC50 did it give?
**A.** 6.00 to 6.30

**Q.** CCNc1nc(-c2c(C3CCCC3)c3ccc(C(=O)O)cc3n2C)cs1 [compound 120] was tested. Which pIC50 did it give?
**A.** < 6.00

**Q.** How did the pIC50 turn out when Cc1nc(-c2c(C3CCCC3)c3ccc(C(=O)O)cc3n2C)cs1 [compound 121] was run?
**A.** 6.00 to 6.30

**Q.** CCCNc1nc(-c2c(C3CCCC3)c3ccc(C(=O)O)cc3n2C)cs1 [compound 122] was tested. Which pIC50 did it give?
**A.** < 6.00

**Q.** COCCNc1nc(-c2c(C3CCCC3)c3ccc(C(=O)O)cc3n2C)cs1 [compound 123] was tested. Which pIC50 did it give?
**A.** > 6.30

**Q.** How did the pIC50 turn out when Cn1c(-c2csc(NC(=O)CC(C)(C)C)n2)c(C2CCCC2)c2ccc(C(=O)O)cc21 [compound 125] was run?
**A.** < 6.00

**Q.** How did the pIC50 turn out when Cn1c(-c2csc(NC(=O)C(C)(C)C)n2)c(C2CCCC2)c2ccc(C(=O)O)cc21 [compound 126] was run?
**A.** < 6.00

**Q.** With CN(C)CCNc1nc(-c2c(C3CCCC3)c3ccc(C(=O)O)cc3n2C)cs1 [compound 127] as the compound, how does the pIC50 read?
**A.** > 6.30

**Q.** How did the pIC50 turn out when Cn1c(-c2cnco2)c(C2CCCC2)c2ccc(C(=O)O)cc21 [compound 128] was run?
**A.** > 6.30

**Q.** With Cn1c(-c2nccs2)c(C2CCCC2)c2ccc(C(=O)O)cc21 [compound 129] as the compound, how does the pIC50 read?
**A.** 6.00 to 6.30

**Q.** Cn1c(-c2cccc(N)c2)c(C2CCCC2)c2ccc(C(=O)O)cc21 [compound 130] was tested. Which pIC50 did it give?
**A.** < 6.00

**Q.** Cn1c(-c2ccc(N)cc2)c(C2CCCC2)c2ccc(C(=O)O)cc21 [compound 131] was tested. Which pIC50 did it give?
**A.** 6.00 to 6.30

**Q.** Cn1c(-c2ccsc2)c(C2CCCC2)c2ccc(C(=O)O)cc21 [compound 132] was tested. Which pIC50 did it give?
**A.** > 6.30

**Q.** With Cc1cccc(-c2c(C3CCCC3)c3ccc(C(=O)O)cc3n2C)n1 [compound 133] as the compound, how does the pIC50 read?
**A.** 6.00 to 6.30

**Q.** Cc1ccc(-c2c(C3CCCC3)c3ccc(C(=O)O)cc3n2C)cn1 [compound 134] was tested. Which pIC50 did it give?
**A.** 6.00 to 6.30

**Q.** Cn1c(-c2cnccn2)c(C2CCCC2)c2ccc(C(=O)O)cc21 [compound 135] was tested. Which pIC50 did it give?
**A.** > 6.30

**Q.** How did the pIC50 turn out when Cn1c(-c2ccc(Br)cn2)c(C2CCCC2)c2ccc(C(=O)O)cc21 [compound 136] was run?
**A.** 6.00 to 6.30

**Q.** Cn1c(-c2ccc([N+](=O)[O-])cn2)c(C2CCCC2)c2ccc(C(=O)O)cc21 [compound 137] was tested. Which pIC50 did it give?
**A.** 6.00 to 6.30

**Q.** How did the pIC50 turn out when O=C(O)c1ccc2c(C3CCCC3)c(-c3ccccn3)sc2c1 [compound 138] was run?
**A.** < 6.00

**Q.** Cn1c(-c2csc(N)n2)c(C2CCCCC2)c2ccc(C(=O)O)cc21 [compound 139] was tested. Which pIC50 did it give?
**A.** > 6.30

**Q.** How did the pIC50 turn out when O=C(O)c1ccc2c(C3CCCC3)c(-c3ccccn3)oc2c1 [compound 141] was run?
**A.** < 6.00

**Q.** How did the pIC50 turn out when O=C(O)c1ccc2c(C3CCCCC3)c(-c3ccccn3)[nH]c2c1 [compound 142] was run?
**A.** < 6.00

**Q.** How did the pIC50 turn out when O=C(O)Cn1c(-c2ccccn2)c(C2CCCCC2)c2ccc(C(=O)O)cc21 [compound 143] was run?
**A.** 6.00 to 6.30

**Q.** How did the pIC50 turn out when Cn1c(-c2ccc(Cl)cn2)c(C2CCCC2)c2ccc(C(=O)O)cc21 [compound 144] was run?
**A.** < 6.00

**Q.** O=C(O)c1ccc2c(C3CCCC3)c(-c3ccccn3)[nH]c2c1 [compound 145] was tested. Which pIC50 did it give?
**A.** < 6.00

**Q.** With CC(C(=O)O)n1c(-c2ccc(Br)cn2)c(C2CCCCC2)c2ccc(C(=O)O)cc21 (stereo not shown) [compound 146] as the compound, how does the pIC50 read?
**A.** < 6.00

**Q.** With COc1ccc(-c2c(C3CCCC3)c3ccc(C(=O)O)cc3n2C)nc1 [compound 147] as the compound, how does the pIC50 read?
**A.** < 6.00

**Q.** How did the pIC50 turn out when Cn1c(-c2ccc(F)cn2)c(C2CCCC2)c2ccc(C(=O)O)cc21 [compound 148] was run?
**A.** 6.00 to 6.30

**Q.** With O=C(O)Cn1c(-c2ccc(Br)cn2)c(C2CCCCC2)c2ccc(C(=O)O)cc21 [compound 149] as the compound, how does the pIC50 read?
**A.** 6.00 to 6.30

**Q.** With Cn1c(-c2ccccc2)c(C2CCCCC2)c2ccc(C(=O)O)nc21 [compound 201, 3-Cyclohexyl-1-methyl-2-phenyl-1H-pyrrolo[2,3,b]pyridine-6-carboxylic acid] as the compound, how does the pIC50 read?
**A.** < 6.00

**Q.** How did the pIC50 turn out when Cn1c(-c2ccoc2)c(C2CCCCC2)c2ccc(C(=O)O)nc21 [compound 202] was run?
**A.** < 6.00
